This assay deals with recombinant SCM, the M protein of Streptococcus canis (Streptococcus canis). In words: SPR. The following applies: domain or fragment.

A word on the Kd: it is the constant that tells how readily two partners part at equilibrium. Take human IgG-Fc: the Kd came to 123 nM.
